An excerpt weighted towards active compounds, which were near 1.3% of everything screened.
INS-1E GSIS act: GLuc luminescence reporter in INS-1E cells, primary screen for activators of glucose-dependent secretion of insulin. INS-1E GLuc reporter insulin secretion, 2-3 h. activation, % at 16.6 µM. AID 743287, 2014. 0.61% of 370,000 active;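 active = lowest replicate activation of at least 40%, so every replicate reaches that level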;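 note: 0% = median of neutral control wells and 100% = median of IBMX positive control wells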
SR-BI DiI inh: inhibitors of SR-BI mediated HDL lipid uptake, primary screen, ldlA[mSR-BI] cells, fluorescence, single point; AID 488896, 2010; ldlA[mSR-BI] CHO cells, DiI-HDL uptake fluorescence, 3 h; inhibition, % at 12.5 µM; 0.96% of 320,000 active;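 active = mean replicate inhibition of at least 70% and a set share of replicates each scoring 70 or more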;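 note: 0% = median of neutral control wells and 100% = median of positive control wells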
Yeast UUG start: modulators of start codon recognition fidelity in yeast; AID 602363; activity score, % at 18.7 µM; S. cerevisiae UUG-firefly luciferase reporter, luminescence/redox ratio; 0.13% of 350,000 active;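 active = replicate mean at a twofold rise or more, about +100% in these data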;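 note: firefly luciferase made from a UUG start codon reports start codon fidelity; reporter light over untreated wells divided by growth signal over untreated wells; some hits fall short of that in this replicate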
SR-BI DiI-HDL act: activators of SR-BI mediated DiI-HDL uptake, primary screen, ldlA[mSR-BI] CHO cells, DiI fluorescence. 3 h; 100 = double the neutral-control signal. activation, % at 12.5 µM. 0.096% of 320,000 active;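 active = mean replicate activation of at least 60% and every replicate at or above 60%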;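 note: 0% = median plate neutral-control signal and 100% = twice that signal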
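material = CHO ldlA[mSR-BI] cells | medium = Ham's F12 with 0.5% BSA, HEPES 25 mM, pH 7.4 | reagent = fluorescent DiI-HDL, 10 µg/mL final | compound dosing = single-point compound dose | incubation = 3 h, 37 °C | measured by = bottom-read fluorescence, 550/595 nm | measure = HDL uptake via cellular fluorescence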
Active calls of the source: *; nt = no result given.

INS-1E GSIS act,SR-BI DiI inh,Yeast UUG start,structure,SR-BI DiI-HDL act
-1.4,80.0*,-19.6,O=C(COc1ccccc1)Nc1ccccc1N1CCN(c2ccc(F)cc2)CC1,-80.0
nt,64.4,-4.8,O=C(COc1ccccc1)Nc1ccccc1N1CCN(c2ccccc2)CC1,-64.4
164.2*,-25.1,-1.2,CN(CCO)c1cc(Sc2nc3ccccc3s2)c2nonc2c1[N+](=O)[O-],25.1
42.7,-9.2,-12.1,CC(=O)OCCN(C)c1cc(SC(C)C)c2nonc2c1[N+](=O)[O-],9.2
87.6*,8.4,nt,CCN=C1S/C(=C/c2ccc(-c3ccc(Cl)cc3C(=O)O)o2)C(=O)N1CC,-8.4
-25.7,nt,nt,COc1cccc(S(=O)(=O)N(C)C[C@@H]2Oc3ncc(-c4cccc(C(F)(F)F)c4)cc3C(=O)N([C@H](C)CO)C[C@@H]2C)c1,nt
3.6,5.6,nt,CCOc1ncccc1C(=O)OCC(=O)c1ccc(Br)s1,-5.6
45.2*,-26.3,8.9,CCOc1ncccc1C(=O)NCc1ccc(C)cc1,26.3

Next section (two carried over from the part before).
INS-1E GSIS act,SR-BI DiI inh,Yeast UUG start,structure,SR-BI DiI-HDL act
3.6,5.6,nt,CCOc1ncccc1C(=O)OCC(=O)c1ccc(Br)s1,-5.6
45.2*,-26.3,8.9,CCOc1ncccc1C(=O)NCc1ccc(C)cc1,26.3
54.7*,11.2,nt,CCOc1ncccc1C(=O)OCc1ccc(C#N)cc1,-11.2
49.8*,-24.4,-13.4,CCOc1ncccc1C(=O)OCC(=O)c1cccs1,24.4
15.0,nt,nt,C[C@H]1CN([C@@H](C)CO)C(=O)CCCn2cc(nn2)CO[C@H]1CN(C)Cc1ccc2c(c1)OCCO2,nt
nt,77.9*,-7.3,COc1ccc(CC(=O)Nc2ccc(N3CCN(c4ccc(OC)cc4)CC3)c(C#N)c2)cc1,-77.9
nt,90.4*,4.6,Cc1sc(NC(=O)c2sc3nc4c(C)cccc4cc3c2N)c(C#N)c1C,-90.4
-3.2,-40.5,nt,CCCCN(C(=O)c1cccc(S(=O)(=O)N2CCN(C)CC2)c1)c1c(N)n(CC(C)C)c(=O)[nH]c1=O,40.5
nt,-70.1,-7.7,CCCCN(C(=O)c1cccc(S(=O)(=O)N2CCCC2)c1)c1c(N)n(CCC)c(=O)[nH]c1=O,70.1*
nt,-1.5,1.6,O=C(c1cnn2c(C(F)(F)F)cc(-c3ccco3)nc12)N1CCCCCC1,1.5

An excerpt from above in order of the SR-BI DiI inh value, largest number first:
INS-1E GSIS act,SR-BI DiI inh,Yeast UUG start,structure,SR-BI DiI-HDL act
nt,64.4,-4.8,O=C(COc1ccccc1)Nc1ccccc1N1CCN(c2ccccc2)CC1,-64.4
45.2*,-26.3,8.9,CCOc1ncccc1C(=O)NCc1ccc(C)cc1,26.3
nt,-70.1,-7.7,CCCCN(C(=O)c1cccc(S(=O)(=O)N2CCCC2)c1)c1c(N)n(CCC)c(=O)[nH]c1=O,70.1*

Further structures
INS-1E GSIS act,SR-BI DiI inh,Yeast UUG start,structure,SR-BI DiI-HDL act
nt,82.9*,-5.1,O=C(c1cnn2c(C(F)(F)F)cc(-c3ccco3)nc12)N1CCc2ccccc2C1,-82.9
-6.2,120.8*,-17.9,COc1cc(OC)c2cc(C(=O)N/N=C/c3cccc(OC)c3O)[nH]c2c1,-120.7
-31.1,98.8*,-17.1,COc1ccc2[nH]c(C(=O)N/N=C/c3ccc(O)cc3O)cc2c1,-98.8
2.4,38.0,-15.5,COc1cccc(/C=N/NC(=O)c2ccc3nc[nH]c3c2)c1O,-38.0
6.0,144.0*,nt,COc1cccc(/C=N/NC(=O)c2cc3c(OC)ccc(OC)c3[nH]2)c1O,-144.0
10.8,nt,nt,CNC[C@@H]1Oc2c(NC(=O)NC(C)C)cccc2C(=O)N([C@@H](C)CO)C[C@H]1C,nt
5.9,nt,5.3,C/C=C/c1ccc2c(c1)O[C@H](CN(C)C(=O)NCCC)[C@@H](C)CN([C@H](C)CO)S2(=O)=O,nt
56.9*,-27.2,-7.5,N#Cc1nc(N2CCOCC2)nc(N2CCOCC2)n1,27.2
nt,13.4,-18.1,N#CCOc1nc(N2CCOCC2)nc(N2CCOCC2)n1,-13.4
-16.0,nt,14.3,CCCC#Cc1ccc2c(c1)O[C@@H](CN(C)C(=O)C1CC1)[C@H](C)CN([C@@H](C)CO)S2(=O)=O,nt
-8.2,73.6*,-18.3,CCOc1ccccc1NCc1cc(=O)oc2cc(C)c(O)cc12,-73.6
200.3*,-6.0,-20.4,COc1ccc(-n2c(-c3ccc(Cl)cc3)c[nH]c2=S)cc1,6.0
5.0,13.4,nt,Cc1ccc(-n2c(-c3ccccc3)c[nH]c2=S)cc1,-13.4
-29.4,84.1*,nt,CN(C)c1ccc(C=c2c3cc([N+](=O)[O-])ccc3n3c2cc(-c2ccccc2)[n+]3C)cc1,-84.1
nt,-58.0,nt,CN(C)c1ccc(C=c2c3ccccc3n3c2cc(-c2ccccc2)[n+]3C)cc1,58.0
93.9*,-2.5,-4.0,COc1ccc(-c2cc3ccccc3oc2=O)cc1NC(=S)NC(=O)c1ccc2c(c1)OCCO2,2.5
10.8,nt,-16.2,C[C@H]1CN([C@@H](C)CO)S(=O)(=O)c2ccc(Br)cc2O[C@H]1CN(C)C(=O)C1CCCCC1,nt
nt,-75.4,-20.3,CN(C)C(=O)N1CCN(C(=O)N2CCOCC2)CC1,75.4*
nt,79.3*,-16.7,O=C(Nc1nc2ccc(Cl)cc2s1)c1ccc(N2CCCCC2)c([N+](=O)[O-])c1,-79.3
nt,87.5*,nt,O=C(Nc1ccc(N2CCCCC2)c(Cl)c1)c1ccc(N2CCOCC2)c([N+](=O)[O-])c1,-87.5
17.2,77.8*,-25.5,CCOc1cc(C(=O)OCc2cc(=O)n3c(C)csc3n2)ccc1OC,-77.8

Source: PubChem
